# Source: patent US4876269A (priority 1987, dated 1989)
# How the values were obtained:
# [1] = phenylquinone writhing test (PQW), analgesic activity in mice; format: in vivo, male white mice (CF1); settings: fasted male CF1 mice, phenylquinone i.p.
# kappa receptor [2] = experiment: kappa agonist-induced diuresis in rats; settings: for mean cumulative urine output at 5 hours: N = 5 rats/dose; for % increase over control (urine output): at 5 hours
# kappa receptor [3] = settings: rats; literature; cited from earlier work
# [4] = mice; general statement/literature; cited from earlier work
# k receptor = settings: literature; cited from earlier work
smiles,measurement,setting,value
CN(C(=O)c1ccc(Cl)c(Cl)c1)[C@@H]1Cc2ccccc2C[C@H]1N1CCCC1 (relative stereo),"ED50 (effective analgesic dose in 50% of the mice), p.o.",[1],47. mg/kg
same,"ED50 (effective analgesic dose in 50% of the mice), s.c.",[1],16. mg/kg
COc1ccc2c(c1OC)CC[C@@H](N1CCCC1)[C@@H]2N(C)C(=O)Cc1ccc(Cl)c(Cl)c1 (relative stereo),"ED50 (effective analgesic dose in 50% of the mice), p.o.",[1],16. mg/kg
same,"ED50 (effective analgesic dose in 50% of the mice), s.c.",[1],8.1 mg/kg
CN(C(=O)Cc1ccc(Cl)c(Cl)c1)[C@@H]1c2ccccc2CC[C@H]1N1CCCC1.Cl (relative stereo),mean cumulative urine output at 5 hours,kappa receptor [2]; 0.33 mg/kg s.c.,0.96 mL
same,% increase over control (urine output),kappa receptor [2]; 0.33 mg/kg s.c.,-31%
same,mean cumulative urine output at 5 hours,kappa receptor [2]; 1. mg/kg s.c.,2.24 mL
same,mean cumulative urine output at 5 hours,kappa receptor [2]; 3. mg/kg s.c.,3.08 mL
same,mean cumulative urine output at 5 hours,kappa receptor [2]; 9. mg/kg s.c.,6.36 mL
same,mean cumulative urine output at 5 hours,kappa receptor [2]; 27. mg/kg s.c.,8.56 mL
same,"ED50 (effective analgesic dose in 50% of the mice), p.o.",[1],13. mg/kg
same,"ED50 (effective analgesic dose in 50% of the mice), s.c.",[1],2.7 mg/kg
CN(C(=O)Cc1ccc(Cl)c(Cl)c1)[C@@H]1c2ccc(O)cc2CC[C@H]1N1CCCC1 (relative stereo),"ED50 (effective analgesic dose in 50% of the mice), p.o.",[1],4.2 mg/kg
same,"ED50 (effective analgesic dose in 50% of the mice), s.c.",[1],0.032 mg/kg
COc1cccc2c1CC[C@@H](N1CCCC1)[C@@H]2N(C)C(=O)Cc1ccc(Cl)c(Cl)c1.Cl (relative stereo),mean cumulative urine output at 5 hours,kappa receptor [2]; 0.063 mg/kg s.c.,1.20 mL
same,% increase over control (urine output),kappa receptor [2]; 0.063 mg/kg s.c.,50%
same,mean cumulative urine output at 5 hours,kappa receptor [2]; 0.25 mg/kg s.c.,3.44 mL
same,% increase over control (urine output),kappa receptor [2]; 0.25 mg/kg s.c.,330%
same,mean cumulative urine output at 5 hours,kappa receptor [2]; 1. mg/kg s.c.,8.76 mL
same,mean cumulative urine output at 5 hours,kappa receptor [2]; 4. mg/kg s.c.,10.9 mL
same,mean cumulative urine output at 5 hours,kappa receptor [2]; 16. mg/kg s.c.,8.64 mL
same,"ED50 (effective analgesic dose in 50% of the mice), p.o.",[1],6.5 mg/kg
same,"ED50 (effective analgesic dose in 50% of the mice), s.c.",[1],0.46 mg/kg
CN(C(=O)Cc1ccc(Cl)c(Cl)c1)[C@@H]1c2cccc(O)c2CC[C@H]1N1CCCC1.Cl (relative stereo),"ED50 (effective analgesic dose in 50% of the mice), p.o.",[1],13. mg/kg
same,"ED50 (effective analgesic dose in 50% of the mice), s.c.",[1],0.72 mg/kg
COc1cccc2c1CC[C@@H](N1CCCC1)[C@@H]2N(C)C(=O)Cc1cccc2sccc12 (relative stereo),"ED50 (effective analgesic dose in 50% of the mice), p.o.",[1],16. mg/kg
same,"ED50 (effective analgesic dose in 50% of the mice), s.c.",[1],0.46 mg/kg
CN(C(=O)Cc1ccc(Cl)c(Cl)c1)[C@@H]1Cc2ccccc2C[C@H]1N1CCCC1 (relative stereo),"ED50 (effective analgesic dose in 50% of the mice), p.o.",[1],> 81. mg/kg
same,"ED50 (effective analgesic dose in 50% of the mice), s.c.",[1],47. mg/kg
CN(C(=O)Cc1ccc(Cl)c(Cl)c1)[C@@H]1c2cc(O)c(O)cc2CC[C@H]1N1CCCC1.Cl (relative stereo),"ED50 (effective analgesic dose in 50% of the mice), p.o.",[1],3.3 mg/kg
same,"ED50 (effective analgesic dose in 50% of the mice), s.c.",[1],0.19 mg/kg
CCC(=O)Oc1cccc2c1CC[C@@H](N1CCCC1)[C@@H]2N(C)C(=O)Cc1ccc(Cl)c(Cl)c1.Cl (relative stereo),"ED50 (effective analgesic dose in 50% of the mice), p.o.",[1],10. mg/kg
same,"ED50 (effective analgesic dose in 50% of the mice), s.c.",[1],0.24 mg/kg
COc1cccc2c1CC[C@@H](N1CCCC1)[C@@H]2N(C)C(=O)Cc1ccc(Cl)c(Cl)c1 (relative stereo),"ED50 (effective analgesic dose in 50% of the mice), p.o.",[1],7.4 mg/kg
same,"ED50 (effective analgesic dose in 50% of the mice), s.c.",[1],0.33 mg/kg
CN(C(=O)Cc1ccc(Cl)c(Cl)c1)[C@@H]1CCCC[C@H]1N1CCCC1 (relative stereo),"increase in urine flow, in words",kappa receptor [3],significant increases in urine flow
same,sedation,[4],sedation is characteristic
same,mean cumulative urine output at 5 hours,kappa receptor [2]; 0.063 mg/kg s.c.,3.48 mL
same,% increase over control (urine output),kappa receptor [2]; 0.063 mg/kg s.c.,43%
same,mean cumulative urine output at 5 hours,kappa receptor [2]; 0.25 mg/kg s.c.,2.84 mL
same,% increase over control (urine output),kappa receptor [2]; 0.25 mg/kg s.c.,16%
same,mean cumulative urine output at 5 hours,kappa receptor [2]; 1. mg/kg s.c.,5.44 mL
same,mean cumulative urine output at 5 hours,kappa receptor [2]; 4. mg/kg s.c.,10.5 mL
same,mean cumulative urine output at 5 hours,kappa receptor [2]; 16. mg/kg s.c.,13.6 mL
same,"analgesia, in words",k receptor,"analgesic actions in a variety of assays, such as thermal, pressure and irritant"
same,"ED50 (effective analgesic dose in 50% of the mice), p.o.",[1],13. mg/kg
same,"ED50 (effective analgesic dose in 50% of the mice), s.c.",[1],1.2 mg/kg
COc1ccc2c(c1)CC[C@@H](N1CCCC1)[C@@H]2N(C)C(=O)Cc1ccc(Cl)c(Cl)c1.Cl (relative stereo),"ED50 (effective analgesic dose in 50% of the mice), p.o.",[1],6.5 mg/kg
same,"ED50 (effective analgesic dose in 50% of the mice), s.c.",[1],1.5 mg/kg
CN(C(=O)Cc1ccc(Cl)c(Cl)c1)[C@@H]1c2ccccc2C[C@H]1N1CCCC1 (relative stereo),"ED50 (effective analgesic dose in 50% of the mice), p.o.",[1],30. mg/kg
same,"ED50 (effective analgesic dose in 50% of the mice), s.c.",[1],1.5 mg/kg
COc1ccc(OC)c2c1CC[C@@H](N1CCCC1)[C@@H]2N(C)C(=O)Cc1ccc(Cl)c(Cl)c1 (relative stereo),"ED50 (effective analgesic dose in 50% of the mice), p.o.",[1],24. mg/kg
same,"ED50 (effective analgesic dose in 50% of the mice), s.c.",[1],47. mg/kg
CN(C(=O)Cc1ccc(Cl)c(Cl)c1)[C@@H]1c2cc(O)ccc2CC[C@H]1N1CCCC1 (relative stereo),"ED50 (effective analgesic dose in 50% of the mice), p.o.",[1],16. mg/kg
same,"ED50 (effective analgesic dose in 50% of the mice), s.c.",[1],0.46 mg/kg
"COc1cccc2c1CC[C@@H](N1CCCC1)[C@@H]2N(C)C(=O)Cc1ccc(Cl)c(Cl)c1 (single isomer, unassigned)","ED50 (effective analgesic dose in 50% of the mice), p.o.",[1],5.2 mg/kg
same,"ED50 (effective analgesic dose in 50% of the mice), s.c.",[1],0.15 mg/kg
